Antibody variant affinities, Ab-14 light chain, assay 1

All variants were tested on one target, the spike HR2 peptide PDVDLGDISGINAS (SARS-CoV-2).

The variants keep the heavy chain, the linker and the frameworks of Ab-14 (scFv order VH, three GGGGS repeats, VL).
VH: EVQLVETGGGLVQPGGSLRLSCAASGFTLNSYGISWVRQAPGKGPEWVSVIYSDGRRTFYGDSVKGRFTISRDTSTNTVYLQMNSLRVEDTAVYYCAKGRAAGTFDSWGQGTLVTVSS
VL: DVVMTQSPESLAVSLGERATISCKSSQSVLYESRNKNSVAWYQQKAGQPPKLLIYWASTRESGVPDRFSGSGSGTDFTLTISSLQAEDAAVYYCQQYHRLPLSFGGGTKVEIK

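In library AAYL50, one, two or three CDR residues were substituted; doubles and triples were drawn at random. Affinity was read by AlphaSeq, a pooled yeast mating assay with surface-displayed partners. Binding brings cells together so that they mate, and sequencing counts the barcode pairs among the diploids. A regression on co-assayed BCL2-family reference pairs converts the normalised counts of each replicate to an apparent Kd. There are three technical replicates.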

Substitutions are numbered in sequence along the VL above, starting at 1 (not Kabat). Numbers give log10(Kd / nM), so 0 is 1 nM and 3 is 1 µM. Smaller is tighter. Replicates are averaged; those with no signal do not enter the mean. "n.d." means that the variant was in the library but no mating with the target was seen in that replicate; the authors take this as a sign of poor binding, and no number exists.

| # | changes | log10 Kd, replicates | mean, log10 nM | signal with controls |
|---|---|---|---|---|
| 1 | R34G/N35A/S38D | 0.88 1.00 1.00 | 0.96 | 1 of 9 (5.60) |
| 2 | Q27Y/N35I/Q95A | 2.33 2.73 1.71 | 2.26 | 1 of 9 (3.12) |
| 3 | Y31A/N35M/V39Q | n.d. n.d. n.d. | n.d. | 1 of 9 (2.38) |
| 4 | S103P | 3.51 4.05 n.d. | 3.78 | 2 of 9 (4.06) |
| 5 | K24Q/Q95C/Q96W | n.d. n.d. n.d. | n.d. | 0 of 9 |
| 6 | E32V/S33G/S58W | 3.99 4.09 4.54 | 4.20 | 4 of 9 (4.02) |
| 7 | Q27E/A57N/S62R | 3.30 2.81 2.90 | 3.00 | 1 of 9 (3.76) |
| 8 | S25M/A57V/S58Y | n.d. n.d. n.d. | n.d. | 0 of 9 |
| 9 | V39W/R60K | n.d. n.d. n.d. | n.d. | 0 of 9 |
| 10 | V29G/N35V/K36E | 0.66 0.90 0.81 | 0.79 | 5 of 9 (5.45) |
| 11 | E61M/Q96R | n.d. n.d. n.d. | n.d. | 0 of 9 |
| 12 | K24P/L30K/R60Q | n.d. n.d. n.d. | n.d. | 0 of 9 |
| 13 | N35Y/Q95S/L100G | 4.39 3.18 n.d. | 3.78 | 3 of 9 (4.11) |
| 14 | N37R/V39K/W56R | 6.47 4.69 6.03 | 5.73 | 2 of 9 (4.09) |
| 15 | Y31K/A40V/R60T | n.d. n.d. n.d. | n.d. | 0 of 9 |
| 16 | K36Y/W56H | -0.19 0.13 0.04 | -0.01 | 0 of 9 |
| 17 | V39R/S58V | n.d. n.d. n.d. | n.d. | 0 of 9 |
| 18 | Q27F/E32R/S62H | 3.47 3.14 3.22 | 3.27 | 1 of 9 (5.12) |
| 19 | R34I/S38I/Q95G | n.d. n.d. n.d. | n.d. | 4 of 9 (4.78) |
| 20 | Q27P/N35C/W56Q | -0.15 0.22 -0.02 | 0.02 | 3 of 9 (4.66) |
| 21 | L30K/S103T | n.d. n.d. n.d. | n.d. | 0 of 9 |
| 22 | S28W/R60A/L100N | n.d. n.d. n.d. | n.d. | 1 of 9 (3.57) |
| 23 | S103R | 4.88 2.83 4.15 | 3.95 | 0 of 9 |
| 24 | K24D/S33V/L102C | n.d. n.d. n.d. | n.d. | 1 of 9 (2.58) |
| 25 | L30Y/S58R/Q95N | n.d. n.d. n.d. | n.d. | 2 of 9 (4.19) |
| 26 | K24F/S25H/R34T | n.d. 1.23 2.72 | 1.98 | 0 of 9 |
| 27 | S33M/Y97C | 3.89 5.01 4.32 | 4.41 | 6 of 9 (4.67) |
| 28 | R34E/T59V/R60G | 2.14 2.18 1.58 | 1.97 | 1 of 9 (4.76) |
| 29 | A40D/A57S | n.d. n.d. n.d. | n.d. | 5 of 9 (4.53) |
| 30 | L30V/V39W/S58P | n.d. n.d. 4.29 | 4.29 | 1 of 9 (3.82) |
| 31 | Q27K/K36M/N37P | 1.02 1.31 1.58 | 1.30 | 3 of 9 (3.48) |
| 32 | E32M/N37R/E61A | 2.41 2.26 2.34 | 2.33 | 2 of 9 (4.09) |
| 33 | Q27G/Y31D/Q96I | 0.74 1.00 0.99 | 0.91 | 2 of 9 (3.25) |
| 34 | S25L/L30P/Q95F | 1.44 1.46 1.44 | 1.45 | 2 of 9 (4.34) |
| 35 | Q27P/V39N/S103K | n.d. n.d. n.d. | n.d. | 2 of 9 (3.74) |

Picked from the list: the 5 lowest averages where every replicate gave a value.

{"changes": "K36Y/W56H", "log10 Kd, replicates": "-0.19 0.13 0.04", "mean, log10 nM": "-0.01", "signal with controls": "0 of 9"}
{"changes": "Q27P/N35C/W56Q", "log10 Kd, replicates": "-0.15 0.22 -0.02", "mean, log10 nM": "0.02", "signal with controls": "3 of 9 (4.66)"}
{"changes": "V29G/N35V/K36E", "log10 Kd, replicates": "0.66 0.90 0.81", "mean, log10 nM": "0.79", "signal with controls": "5 of 9 (5.45)"}
{"changes": "Q27G/Y31D/Q96I", "log10 Kd, replicates": "0.74 1.00 0.99", "mean, log10 nM": "0.91", "signal with controls": "2 of 9 (3.25)"}
{"changes": "R34G/N35A/S38D", "log10 Kd, replicates": "0.88 1.00 1.00", "mean, log10 nM": "0.96", "signal with controls": "1 of 9 (5.60)"}

For reference, the parent read 0.65 as the reference entry and 1.68 as a member of this library. Empty control strains, which show no peptide, gave a signal in 18% of pairings with library AAYL50; the median was 4.19 and 95% of these signals were weaker than 2.99. No background was subtracted. The control count says in how many pairings with the empty strains this scFv gave a signal, with their mean in brackets.

Source: Engelhart et al. 2022 (doi:10.1038/s41597-022-01779-4), MIT Lincoln Laboratory and A-Alpha Bio; data file from the FLAb repository.